This assay addresses FADD (human (endogenous in SKW6.4)) (UniProt Q13158). The assay can be described thus: affinity purification with mass spectrometry; anti-CD95 DISC IP from 5x10^7 SKW6.4 cells stimulated with 1 ug/mL LZ-CD95L; 1D-PAGE, in-gel trypsin digestion, 50 fmol of each heavy AQUA peptide spiked in, nanoLC-ESI-MS/MS on LTQ Orbitrap; amounts summed over gel slices; six replicate IPs.

Values joined by “and” are separate entries in the source; they are usually repeats but may differ in a detail not shown here. Equal values may be shown once.

Turning to “cellular FLICE inhibitory protein (c-FLIP) (from UniProt O15519 1-480) (natural protein; other documents disagree on this pair)”, the stoichiometry N is 0.1 and 0.3.
